Test results: patent publication US11547697B2, “Heterocyclic compounds and uses thereof” (MILLENNIUM PHARMACEUTICALS, INC., priority 2009, dated 2023)

Protein sequences, listed by entry. Tags and fused reporters are not part of them. Lines headed by an entry give the natural chain unless they say otherwise; changes in a name come on top.
UniProt P42336, whole entry: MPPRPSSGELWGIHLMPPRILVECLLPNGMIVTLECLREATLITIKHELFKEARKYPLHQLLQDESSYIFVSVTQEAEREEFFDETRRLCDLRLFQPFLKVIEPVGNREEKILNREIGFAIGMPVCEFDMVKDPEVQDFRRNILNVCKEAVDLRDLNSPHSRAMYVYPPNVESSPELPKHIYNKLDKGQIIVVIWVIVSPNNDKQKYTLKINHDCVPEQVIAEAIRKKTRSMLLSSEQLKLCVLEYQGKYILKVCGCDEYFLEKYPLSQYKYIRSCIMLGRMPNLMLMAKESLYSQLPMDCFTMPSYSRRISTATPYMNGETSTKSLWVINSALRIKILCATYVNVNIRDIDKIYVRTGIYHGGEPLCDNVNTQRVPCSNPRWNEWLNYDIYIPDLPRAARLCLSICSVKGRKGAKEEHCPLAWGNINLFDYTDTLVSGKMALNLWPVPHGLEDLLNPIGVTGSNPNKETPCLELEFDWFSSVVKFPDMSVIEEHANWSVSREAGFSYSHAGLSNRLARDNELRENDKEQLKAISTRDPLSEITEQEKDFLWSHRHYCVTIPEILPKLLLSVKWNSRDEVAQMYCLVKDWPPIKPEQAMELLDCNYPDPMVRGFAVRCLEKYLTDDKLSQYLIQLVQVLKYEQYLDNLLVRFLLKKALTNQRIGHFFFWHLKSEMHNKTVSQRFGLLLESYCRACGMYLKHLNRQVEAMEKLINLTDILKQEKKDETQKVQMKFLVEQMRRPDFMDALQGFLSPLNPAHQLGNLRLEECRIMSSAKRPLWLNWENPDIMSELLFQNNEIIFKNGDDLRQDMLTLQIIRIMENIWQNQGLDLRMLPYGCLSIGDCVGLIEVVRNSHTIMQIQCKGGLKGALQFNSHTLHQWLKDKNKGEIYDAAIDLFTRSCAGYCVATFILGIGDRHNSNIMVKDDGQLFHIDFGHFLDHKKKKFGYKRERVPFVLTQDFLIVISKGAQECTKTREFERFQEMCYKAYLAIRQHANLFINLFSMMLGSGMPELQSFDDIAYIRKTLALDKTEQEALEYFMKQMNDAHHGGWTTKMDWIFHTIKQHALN
UniProt P42338, whole entry: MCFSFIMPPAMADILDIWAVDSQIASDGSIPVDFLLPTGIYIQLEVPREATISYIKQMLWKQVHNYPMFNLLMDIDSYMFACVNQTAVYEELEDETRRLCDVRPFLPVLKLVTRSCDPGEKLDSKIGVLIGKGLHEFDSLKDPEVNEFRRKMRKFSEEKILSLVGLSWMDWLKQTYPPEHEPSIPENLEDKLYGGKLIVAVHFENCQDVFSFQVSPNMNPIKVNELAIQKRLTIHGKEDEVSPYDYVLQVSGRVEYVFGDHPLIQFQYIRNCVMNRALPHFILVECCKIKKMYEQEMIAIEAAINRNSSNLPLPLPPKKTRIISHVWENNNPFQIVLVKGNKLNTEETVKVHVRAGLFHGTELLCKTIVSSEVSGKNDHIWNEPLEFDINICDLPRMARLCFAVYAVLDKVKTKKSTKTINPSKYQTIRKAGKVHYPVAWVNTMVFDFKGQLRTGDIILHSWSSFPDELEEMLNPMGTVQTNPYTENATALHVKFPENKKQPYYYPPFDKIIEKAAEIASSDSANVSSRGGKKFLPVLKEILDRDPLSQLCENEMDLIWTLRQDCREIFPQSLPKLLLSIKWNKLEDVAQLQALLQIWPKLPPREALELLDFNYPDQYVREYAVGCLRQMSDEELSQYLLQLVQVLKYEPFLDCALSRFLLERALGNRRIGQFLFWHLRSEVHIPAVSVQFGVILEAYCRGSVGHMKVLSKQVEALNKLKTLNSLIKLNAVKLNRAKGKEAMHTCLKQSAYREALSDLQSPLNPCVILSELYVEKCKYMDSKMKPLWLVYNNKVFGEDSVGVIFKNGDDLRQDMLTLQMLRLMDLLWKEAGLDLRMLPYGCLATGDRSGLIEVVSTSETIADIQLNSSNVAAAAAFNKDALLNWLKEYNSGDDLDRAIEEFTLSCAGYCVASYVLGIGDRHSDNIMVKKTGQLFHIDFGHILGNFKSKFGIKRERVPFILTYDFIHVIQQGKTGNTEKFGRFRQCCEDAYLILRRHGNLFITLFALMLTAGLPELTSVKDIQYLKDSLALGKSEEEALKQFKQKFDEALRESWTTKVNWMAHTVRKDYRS
UniProt O00329, whole entry: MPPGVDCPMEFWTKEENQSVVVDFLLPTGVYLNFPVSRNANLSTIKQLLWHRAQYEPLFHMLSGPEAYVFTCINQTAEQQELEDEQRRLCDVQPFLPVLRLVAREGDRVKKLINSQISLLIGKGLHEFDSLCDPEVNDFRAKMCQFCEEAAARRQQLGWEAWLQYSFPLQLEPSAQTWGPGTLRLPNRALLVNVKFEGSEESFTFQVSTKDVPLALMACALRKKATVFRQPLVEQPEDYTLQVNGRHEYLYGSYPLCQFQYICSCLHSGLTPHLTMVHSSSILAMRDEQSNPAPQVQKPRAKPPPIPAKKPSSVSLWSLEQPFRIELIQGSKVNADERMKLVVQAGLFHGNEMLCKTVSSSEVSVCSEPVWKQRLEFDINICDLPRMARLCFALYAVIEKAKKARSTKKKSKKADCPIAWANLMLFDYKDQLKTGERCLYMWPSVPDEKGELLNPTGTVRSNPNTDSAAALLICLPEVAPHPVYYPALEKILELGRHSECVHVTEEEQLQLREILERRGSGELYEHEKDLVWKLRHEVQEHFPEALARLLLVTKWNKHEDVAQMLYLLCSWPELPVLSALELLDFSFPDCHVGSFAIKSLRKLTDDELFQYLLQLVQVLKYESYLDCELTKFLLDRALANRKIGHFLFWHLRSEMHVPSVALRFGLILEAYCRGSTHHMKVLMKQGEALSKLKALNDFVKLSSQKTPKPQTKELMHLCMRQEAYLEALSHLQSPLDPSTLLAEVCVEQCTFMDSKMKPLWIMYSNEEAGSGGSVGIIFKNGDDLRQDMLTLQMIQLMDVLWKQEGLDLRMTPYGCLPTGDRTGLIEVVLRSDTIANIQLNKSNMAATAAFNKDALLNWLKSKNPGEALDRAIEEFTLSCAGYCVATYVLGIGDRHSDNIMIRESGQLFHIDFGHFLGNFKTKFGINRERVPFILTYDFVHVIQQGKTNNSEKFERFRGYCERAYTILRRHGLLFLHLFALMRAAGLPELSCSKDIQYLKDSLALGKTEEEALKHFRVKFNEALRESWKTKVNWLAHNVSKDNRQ
UniProt P48736, whole entry: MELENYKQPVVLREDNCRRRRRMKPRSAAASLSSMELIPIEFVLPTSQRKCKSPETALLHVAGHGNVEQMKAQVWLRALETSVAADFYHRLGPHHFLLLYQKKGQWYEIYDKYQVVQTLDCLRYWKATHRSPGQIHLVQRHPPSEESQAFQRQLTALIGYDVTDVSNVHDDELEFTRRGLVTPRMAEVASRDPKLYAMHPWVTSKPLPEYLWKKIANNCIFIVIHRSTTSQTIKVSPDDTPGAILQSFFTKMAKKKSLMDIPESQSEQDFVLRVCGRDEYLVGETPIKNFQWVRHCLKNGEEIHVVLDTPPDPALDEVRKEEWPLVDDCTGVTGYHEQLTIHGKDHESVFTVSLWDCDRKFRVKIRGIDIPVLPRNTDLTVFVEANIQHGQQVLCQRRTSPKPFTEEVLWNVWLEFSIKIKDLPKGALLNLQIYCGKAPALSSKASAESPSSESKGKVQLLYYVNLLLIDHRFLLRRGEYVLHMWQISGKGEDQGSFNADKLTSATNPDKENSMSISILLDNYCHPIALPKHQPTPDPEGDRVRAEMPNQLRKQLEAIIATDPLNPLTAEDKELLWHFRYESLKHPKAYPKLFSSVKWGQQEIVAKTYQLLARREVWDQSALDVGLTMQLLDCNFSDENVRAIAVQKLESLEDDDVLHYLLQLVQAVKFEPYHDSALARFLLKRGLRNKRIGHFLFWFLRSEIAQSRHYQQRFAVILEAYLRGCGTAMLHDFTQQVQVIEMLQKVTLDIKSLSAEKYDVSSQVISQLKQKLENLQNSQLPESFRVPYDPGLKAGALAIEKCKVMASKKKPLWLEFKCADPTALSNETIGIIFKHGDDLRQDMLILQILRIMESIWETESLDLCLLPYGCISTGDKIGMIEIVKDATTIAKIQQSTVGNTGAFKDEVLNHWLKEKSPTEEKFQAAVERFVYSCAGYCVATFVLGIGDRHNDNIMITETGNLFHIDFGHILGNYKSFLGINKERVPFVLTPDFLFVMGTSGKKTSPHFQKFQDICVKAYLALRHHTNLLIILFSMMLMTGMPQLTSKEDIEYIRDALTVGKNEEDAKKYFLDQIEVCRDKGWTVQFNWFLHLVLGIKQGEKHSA
UniProt P27986, whole entry partner: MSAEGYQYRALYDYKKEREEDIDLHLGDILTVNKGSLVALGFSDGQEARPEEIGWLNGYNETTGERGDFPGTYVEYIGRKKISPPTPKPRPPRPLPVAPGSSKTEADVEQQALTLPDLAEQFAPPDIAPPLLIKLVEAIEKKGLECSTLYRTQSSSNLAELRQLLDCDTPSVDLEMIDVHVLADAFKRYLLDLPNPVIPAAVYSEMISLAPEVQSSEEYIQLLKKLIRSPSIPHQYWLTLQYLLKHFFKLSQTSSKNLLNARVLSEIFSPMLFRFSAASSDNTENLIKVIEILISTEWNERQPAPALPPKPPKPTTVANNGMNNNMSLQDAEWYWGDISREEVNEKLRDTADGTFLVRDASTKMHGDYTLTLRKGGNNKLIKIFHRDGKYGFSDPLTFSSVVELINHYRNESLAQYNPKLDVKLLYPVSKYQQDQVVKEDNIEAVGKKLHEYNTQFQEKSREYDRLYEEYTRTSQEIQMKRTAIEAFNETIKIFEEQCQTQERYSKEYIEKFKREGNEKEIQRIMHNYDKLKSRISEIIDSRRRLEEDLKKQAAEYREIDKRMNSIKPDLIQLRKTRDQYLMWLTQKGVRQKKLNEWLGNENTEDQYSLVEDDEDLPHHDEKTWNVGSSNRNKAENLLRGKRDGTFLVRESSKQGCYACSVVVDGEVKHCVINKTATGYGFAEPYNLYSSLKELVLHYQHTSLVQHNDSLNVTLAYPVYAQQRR

Assays:
p110α/p85α = p110α/p85α (Homo sapiens (Human), UniProt P42336); experiment: PI 3-Kinase (human) HTRF assay, p110α/p85α; assay type: biochemical; conditions: read-out: PI3K α IC50
p110β/p85α = p110β/p85α (Homo sapiens (Human), UniProt P42338); experiment: PI 3-Kinase (human) HTRF assay, p110β/p85α; conditions: read-out: PI3K β IC50
p110δ/p85α = p110δ/p85α (Homo sapiens (Human), UniProt O00329); experiment: PI 3-Kinase (human) HTRF assay, p110δ/p85α; assay type: biochemical; conditions: read-out: PI3K δ IC50
p110γ = p110γ (Homo sapiens (Human), UniProt P48736); experiment: PI 3-Kinase (human) HTRF assay, p110γ; assay type: biochemical; conditions: read-out: PI3K γ IC50

Row | IC50 (p110δ/p85α) | Structure (SMILES) | IC50 (p110α/p85α) | IC50 (p110β/p85α) | IC50 (p110γ)
1 | < 1000 nM | Nc1nc2cc(-c3ccc4ncc(-c5ccc(N6CCOCC6)nc5)n4c3)ccc2o1 | < 100 nM | < 1000 nM | < 1000 nM
2 |  | Nc1nc2cc(-c3ccc4ncn(-c5ccccc5)c4c3)ccc2o1 | < 100 nM | < 10000 nM | < 1000 nM
